A value given as a limit tells only on which side of the number the result lay.

Amino acid sequences for entries named in this document (tags omitted).
UniProt P41143, whole entry, looked up: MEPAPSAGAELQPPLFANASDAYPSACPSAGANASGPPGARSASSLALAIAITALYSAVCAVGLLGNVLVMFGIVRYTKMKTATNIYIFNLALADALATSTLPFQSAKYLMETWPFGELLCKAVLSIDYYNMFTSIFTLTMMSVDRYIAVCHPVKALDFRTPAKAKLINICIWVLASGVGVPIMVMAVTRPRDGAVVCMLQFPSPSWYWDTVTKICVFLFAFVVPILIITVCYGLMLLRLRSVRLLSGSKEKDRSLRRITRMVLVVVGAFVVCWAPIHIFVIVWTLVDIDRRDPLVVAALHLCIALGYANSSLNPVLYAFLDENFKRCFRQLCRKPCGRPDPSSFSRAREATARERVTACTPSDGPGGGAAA
UniProt P35372, whole entry, looked up: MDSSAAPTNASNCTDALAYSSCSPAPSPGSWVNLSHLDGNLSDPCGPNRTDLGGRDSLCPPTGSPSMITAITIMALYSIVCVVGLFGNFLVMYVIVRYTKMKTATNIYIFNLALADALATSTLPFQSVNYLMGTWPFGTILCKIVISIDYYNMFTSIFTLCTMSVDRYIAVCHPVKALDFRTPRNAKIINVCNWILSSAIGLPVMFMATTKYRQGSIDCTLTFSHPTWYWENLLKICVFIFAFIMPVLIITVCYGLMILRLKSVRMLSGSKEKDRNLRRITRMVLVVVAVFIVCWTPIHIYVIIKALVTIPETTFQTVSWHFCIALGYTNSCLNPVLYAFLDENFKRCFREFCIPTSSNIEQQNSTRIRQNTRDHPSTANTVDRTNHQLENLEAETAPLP

The target in experiment [1] is Delta-type opioid receptor (Homo sapiens, UniProt P41143). The experiment in a line: Stimulation of [35S]GTP-gamma-S, binding at human recombinant Opioid receptor delta 1 transfected into CHO cells. On the technique in general: Binding of GTPγS marks nucleotide exchange on a G protein.
Experiment [2] addresses T1, Mu-type opioid receptor (Homo sapiens, UniProt P35372). As to conditions: cho.
The target in experiment [3] is T1, Mu-type opioid receptor. Kind of experiment: Stimulation of [35S]GTP-gamma-S, binding to recombinant human Opioid receptor mu 1 expressed in CHO cells.

Consider `CN(C(=O)Cc1ccccc1)[C@H]1CC[C@@]2(CCCO2)C[C@@H]1N1CCCC1`, for which the EC50 (in experiment [1]; at Mu-type opioid receptor [3]) was above 10 µM in each case. At Mu-type opioid receptor [2], the affinity, expressed as Ki, was 1.15 µM.

Source of the values: ChEMBL document CHEMBL1144921, “14-amino, 14-alkylamino, and 14-acylamino analogs of oxymorphindole. Differential effects on opioid receptor binding and functional profiles” (J Med Chem, 2003).
